{
  "source": "ChEMBL document CHEMBL3739346",
  "about": "“In silico study on aging and reactivation processes of tabun conjugated AChE” (2015)",
  "assay": "Octanol-water partition coefficient, log P of the compound",
  "data": [
    {"molecule": "N/C(=N\\O)c1ncccc1O", "values": [
      {"measurement": "logP", "result": -0.14}
    ]}
  ]
}
